These are literature values, as cited in EP2322149A1, “Methods and compositions for the treatment of ischemia” (Universidad del Pais Vasco, priority 2009, dated 2011).

pIC50: −log10 of the molar value. Where a name gives a salt, the structure may show the parent alone.

In the series the target is T1, P2X4 (Homo sapiens, UniProt Q99571).
T1 sequence (Q99571 1-388): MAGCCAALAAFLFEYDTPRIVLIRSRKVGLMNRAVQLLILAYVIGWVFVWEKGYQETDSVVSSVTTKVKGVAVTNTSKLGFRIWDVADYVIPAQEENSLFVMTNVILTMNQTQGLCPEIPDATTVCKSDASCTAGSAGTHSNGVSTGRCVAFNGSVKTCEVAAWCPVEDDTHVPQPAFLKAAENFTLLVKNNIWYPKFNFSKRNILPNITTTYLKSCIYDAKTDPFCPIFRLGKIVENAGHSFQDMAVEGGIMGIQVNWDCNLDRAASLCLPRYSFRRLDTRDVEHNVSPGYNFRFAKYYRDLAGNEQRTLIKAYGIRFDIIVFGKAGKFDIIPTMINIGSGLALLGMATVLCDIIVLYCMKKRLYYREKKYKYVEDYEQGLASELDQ
The conditions noted are these: cited from earlier work.

As for `Nc1ncnc2c1ncn2[C@@H]1O[C@H](COP(=O)(O)OP(=O)(O)OP(=O)(O)O)[C@H]2OC3(O[C@H]21)C([N+](=O)[O-])=CC(=[N+]([O-])[O-])C=C3[N+](=O)[O-]` (stereo partly shown) [TNP-ATP, monolithium salt of 2',3'-O-2,4,6-trinitrophenyl-adenosine 5'-triphosphate], the pIC50 was 4.82.

Usually pIC50 stands for the negative decadic logarithm of the IC50, by convention in mol/L.
